Experimental data taken from article PMC6137088, “The Role of Outer Membrane Proteins and Lipopolysaccharides for the Sensitivity of Escherichia coli to Antimicrobial Peptides” (Frontiers in Microbiology, 2018).

Test system: E. coli ATCC25922
Format: cell-based, Escherichia coli
Conditions: Table 4; E. coli ATCC25922 (smooth LPS); triplicates
Source text: The E. coli strains 470, F632, F653 and F2513 were kindly provided by Prof. H. Brade and Prof. S. Muller-Loennies, Research Center Borstel, Leipniz-Center for Medicine and Biosciences, Germany. E. coli BW25113 (CGSC#:7636), a derivative of F^−, λ^− E. coli K12 strain BD792 is the wild-type strain which was used in the generation of the KEIO collection and ordered from the Coli Genetic Stock Centre (CGSC, Yale University). E. coli JW3596, E. coli JW3024, E. coli JW3595, E. coli JW3606, E. coli JW0212, E. coli JW1667, E. coli JW0554, E. coli JW3605 and E. coli JW3600 are isogenic mutants of waaC, waaE, waaF, waaG, gmhA (lpcA), lpp, ompT, waaP, or waaY derived from the parental strain E. coli BW25113 and were ordered from the KEIO collection (Baba et al., [2006]). E. coli ATCC25922 is a clinical isolate, serotype O6, often used as control strain in antimicrobial susceptibility testing was ordered from the ATCC strain collection. […]
The minimum inhibitory concentrations (MICs) of the AMPs were measured in 96-well microtiter plates according the Clinical and Laboratory Standards Institute [CLSI, formerly National Committee for Clinical Laboratory Standards (NCCLS)] […] After incubation, the minimal inhibitory concentration (MIC) is determined by the lowest concentration showing no visible growth. […]

For `CC[C@H](C)[C@H](NC(=O)CN)C(=O)NCC(=O)N[C@@H](C)C(=O)N[C@H](C(=O)N[C@@H](CC(C)C)C(=O)N[C@@H](CCCCN)C(=O)N[C@H](C(=O)N[C@@H](CC(C)C)C(=O)N[C@H](C(=O)N[C@H](C(=O)NCC(=O)N[C@@H](CC(C)C)C(=O)N1CCC[C@H]1C(=O)N[C@@H](C)C(=O)N[C@@H](CC(C)C)C(=O)N[C@H](C(=O)N[C@@H](CO)C(=O)N[C@@H](Cc1c[nH]c2ccccc12)C(=O)N[C@H](C(=O)N[C@@H](CCCCN)C(=O)N[C@@H](CCCNC(=N)N)C(=O)N[C@@H](CCCCN)C(=O)N[C@@H](CCCNC(=N)N)C(=O)N[C@@H](CCC(N)=O)C(=O)N[C@@H](CCC(N)=O)C(N)=O)[C@@H](C)CC)[C@@H](C)CC)[C@@H](C)O)[C@@H](C)O)C(C)C)C(C)C` [Melittin], the “Antimicrobial activity (MIC)” value was 16 µg/mL.
